Where two headings read alike, the source gives them in different places.

The test system of the series is Kunming mice. Conditions: single i.p.
[1] abbreviates: 50% male 50% female mice, 122.9 mg/kg.
The mark [2] stands for this setting: 50% male 50% female mice, 153.6 mg/kg.
Where [3] appears, read: 50% male 50% female mice, 192 mg/kg.
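Further: acute toxicity in Kunming mice grouped by sex, one intraperitoneal dose at five graded levels in Tween-80 plus 0.5% CMC-Na, deaths monitored over two weeks.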

`c1ccc(Cn2c3ccccc3c3ccncc32)cc1` [Compound 84, 9-Benzyl-β-carboline]: the Death rate is, setting by setting: under setting [1], 0; under setting [2], 0; under setting [3], 0; (female mice, 122.9 mg/kg) 0; (female mice, 153.6 mg/kg) 0; (female mice, 192 mg/kg) 0. Also, the Death rate (male mice, 122.9 mg/kg) stood at 0; the Death rate (male mice, 153.6 mg/kg) came to 0; the Death rate (male mice, 192 mg/kg) stood at 0.
Consider `CCOC(=O)c1cc2c([nH]c3ccccc32)c(C)n1` [Compound 11, ethyl 1-methyl-β-carboline-3-carboxylate], for which the Death rate is recorded as 0 under setting [1]; 30 under setting [2]; 50 under setting [3]; 0 (female mice, 122.9 mg/kg); 0 (male mice, 122.9 mg/kg); 20 (male mice, 153.6 mg/kg).
In the case of `OCc1cc2c3ccccc3n(Cc3ccccc3)c2cn1` [Compound 42, 9-benzyl-3-hydroxymethyl-β-carboline], the Death rate is, setting by setting: under setting [1], 0; under setting [2], 0; (female mice, 122.9 mg/kg) 0; (female mice, 153.6 mg/kg) 0; (male mice, 122.9 mg/kg) 0; (male mice, 153.6 mg/kg) 0. Moreover, under “male mice, 192 mg/kg”, the Death rate is 0.
In the case of `COC(=O)c1cc2c([nH]c3ccccc32)c(-c2ccc(O)cc2)n1` [Compound 16, methyl 1-(4-hydroxyphenyl)-β-carboline-3-carboxylate], the Death rate was found to be 0 under setting [1]; 0 under setting [2]; 0 under setting [3]; 0 (female mice, 122.9 mg/kg); 0 (female mice, 153.6 mg/kg); 0 (female mice, 192 mg/kg). The Death rate is 0 (male mice, 122.9 mg/kg); 0 (male mice, 153.6 mg/kg); 0 (male mice, 192 mg/kg).
In the case of `CCOC(=O)c1cc2c3ccccc3n(Cc3ccccc3)c2cn1` [Compound 33, ethyl 9-benzyl-β-carboline-3-carboxylate], the Death rate runs as follows: under setting [1], 0; under setting [2], 0; under setting [3], 10; (female mice, 122.9 mg/kg) 0; (female mice, 153.6 mg/kg) 0; (male mice, 122.9 mg/kg) 0. In addition, the Death rate is 0 (male mice, 153.6 mg/kg) and 0 (male mice, 192 mg/kg).
Consider `CCCCn1c2ccccc2c2cc(C(=O)O)ncc21` [Compound 36, 9-butyl-β-carboline-3-carboxylic acid], for which the Death rate is, setting by setting: under setting [1], 0; under setting [2], 0; under setting [3], 0; (female mice, 122.9 mg/kg) 0; (female mice, 153.6 mg/kg) 0; (female mice, 192 mg/kg) 0. For the same compound, the Death rate is given as 0 (male mice, 122.9 mg/kg); 0 (male mice, 153.6 mg/kg); 0 (male mice, 192 mg/kg).
Consider `O=C(O)c1cc2c3ccccc3n(Cc3ccccc3)c2cn1` [Compound 37, 9-benzyl-β-carboline-3-carboxylic acid], for which the Death rate reads like this: under setting [1], 10; under setting [3], 70; (female mice, 122.9 mg/kg) 10; (female mice, 192 mg/kg) 80; (male mice, 122.9 mg/kg) 0; (male mice, 192 mg/kg) 60.
As to `O=C(O)c1cc2c3ccccc3n(CCCc3ccccc3)c2cn1` [Compound 48, 9-phenylpropyl-β-carboline-3-carboxylic acid], the Death rate under setting [1] turned out to be 0; the Death rate under setting [2] was determined as 0; the Death rate (female mice, 122.9 mg/kg) is given as 0; the Death rate (female mice, 153.6 mg/kg) worked out at 0; the Death rate (female mice, 192 mg/kg) is 40; the Death rate (male mice, 122.9 mg/kg) is given as 0. The Death rate came out at 0 (male mice, 153.6 mg/kg) and 20 (male mice, 192 mg/kg).
`CCOC(=O)Nc1cc2c3ccccc3n(Cc3ccccc3)c2cn1` [Compound 55, 3-[(ethoxycarbonyl)amino]-9-benzyl-β-carboline]: the Death rate runs as follows: under setting [1], 0; under setting [2], 0; under setting [3], 0; (female mice, 122.9 mg/kg) 0; (female mice, 153.6 mg/kg) 0; (female mice, 192 mg/kg) 0. The Death rate by setting is: (male mice, 122.9 mg/kg) 0; (male mice, 153.6 mg/kg) 0; (male mice, 192 mg/kg) 0.
